The subject of assay [1] is human skin fibroblast cultures. As to the kind of experiment: cell proliferation, Alamar blue, skin fibroblasts. The assay is classed as cell-based. Conditions: two days, FIG. 2B. How it is done:
The effects of IGF-API, API and C26 on cell proliferation were also evaluated using the art-established Alamar blue technique developed for hematopoietic cells or endothelial cells (DiFalco, et al. (1997) Biochem. J. 326:407-13; DiFalco & Congote (2002) Cytokine 18 (1):51-60; Sandoval, et al. (2002) supra). Five thousand cells per well were plated in 96-well plates and grown over night in complete cell culture medium. The cells were subsequently starved for one day in serum-free medium supplemented with 5 μg/mL bovine transferrin and 200 μg/mL fatty-acid free, tissue culture-tested, bovine serum albumin and incubated for two days in the presence of the API derivatives indicated. For experiments with the hepatoma cell line, Hep G2, only 3000 cells were plated per well.
In general terms: Alamar Blue is a resazurin reagent that responds to reducing activity.

A further assay has as its system human skin keratinocytes. Nature of the assay: in vitro wound healing, monolayer of skin keratinocytes. The assay is classed as cell-based. Conditions: FIG. 1C. How it is done: (§1) Wound healing was measured using an art-established monolayer cell culture method (Nwomeh, et al. (1998) supra). Cells to be studied were plated in 48-well tissue culture plates at a cell density appropriate for obtaining confluent monolayers after one day in culture. Circular wounds were made in the center of the wells by placing a siliconized 200 μL tip into the well and lifting the cells from the plastic by applying suction. The successful creation of wounds was analysed using a phase contrast microscope. Cells were subsequently treated with control media or media containing the factors to be tested. The size of the wounds was immediately recorded for each well. […] After one or two days in culture (depending on the cells studied), the size of the wounds was measured again. Wound dimensions were evaluated with a Leica MZFL11 stereo microscope. Computer images of the wounds were recorded with imaging software and contours of each wound before and after treatment were traced manually. Collections of contours for all wounds were converted to BMP files and quantitated using the Band-Leader program. The results were expressed as % reduction of wounds taking as 100% the reduction obtained in control cell cultures. […] In these experiments, wound closure was being analysed, independent of the mechanism involved. […]

In assay [2] the test system is primary human skin fibroblasts. Nature of the assay: in vitro wound healing, monolayer of skin fibroblasts. It is filed as cell-based. Conditions: FIG. 1B. How it is done:
as §1

For assay [3], the system named is skin wounds of C57BL/KsJ-db/db genetically diabetic mice. As to the kind of experiment: in vivo skin wound healing, diabetic mice. Conditions: diabetic mouse, 1 μM at days 0, 1, 2, 3 and 5 after wounding, topical 50 μL, FIG. 4B. The text has this:
(§2) The methodology for the preclinical studies was based on procedures described in similar experiments by Brown, et al. ((1994) J. Surg. Res. 56(6):562-70). Normal adult female C57BL/6 mice or C57BL/KsJ-db/db genetically diabetic mice (Jackson Laboratories, West Grove, Pa.) were anaesthetized with Ketamine-Xylazine-Acetopromazine. The backs were shaved, washed with povidone-iodine solution and wiped with sterile water. Two 1-cm^2 full thickness wounds were created on the back. After wounding, Tincture Benzoin compound was applied to the edges of the wounds. A semipermeable, transparent polyurethane dressing (OPSITE®) was placed over the wound and the edges were sealed with the benzoin. At the time of wounding, the healing factors were applied once daily for the first 5 days or at days 0, 1, 2, 3 and 5. IGF-API was dissolved in sterile phosphate-buffered saline (PBS) at the doses indicated in FIG. 4 and 50 μL of the solutions were applied with a 30-gauge needle beneath the OPSITE®) dressing. The liquid was allowed to spread over the wound. The control wound received 50 μL of PBS alone. The edges of epithelial migration were serially traced onto household plastic wrap at days 0, 3, 7, 9 or 11 and the areas of the traced wounds were scanned and measured with an imaging program (measurements of wound closure).

Assay [4] has as its system skin wounds of normal C57BL/6 mice. As to the kind of experiment: in vivo skin wound healing, normal mice. The following applies: normal mouse, 100 nM in PBS, first 5 days after wounding, topical 50 μL, FIG. 4A.
Excerpt: as §2

In assay [5] the test system is LLC-PK1 cells, a porcine kidney epithelial cell line. Nature of the assay: in vitro wound healing, monolayer of kidney epithelial cells. The following applies: FIG. 1A. The assay is classed as cell-based. How it is done:
as §1

B1: IGF-API: IGF I-API fusion protein (SEQ ID NO:3): human IGF-I, poly-glycine linker, API mutated at positions 351 and 358, hexa-histidine tag (protein)
chain: [sequence of about 80 residues not given]GGGSGGGGGGGGGHGLAEDPQGDAAQKTDTSHHDQDHPTFNKITPNLAEFAFSLYRQLAHQSNSTNIFFSPVSIATAFAMLSLGTKADTHDEILEGLNFNLTEIPEAQIHEGFQELLRTLNQPDSQLQLTTGNGLFLSEGLKLVDKFLEDVKKLYHSEAFTVNFGDTEEAKKQINDYVEKGTQGKIVDLVKELDRDTVFALVNYIFFKGKWERPFEVKDTEEEDFHVDQVTTVKVPMMKRLGMFNIQHCKKLSSWVLLMKYLGNATAIFFLPDEGKLQHLENELTHDIITKFLENEDRRSASLHLPKLSITGTYDLKSVLGQLGITKVFSNGADLSGVTEEAPLKLSKAVHKAVLTIDEKGTEAAGAEFLEAIPLSIPPEVKFNKPFVFLMIEQNTKSPLFMGKVVNPTQKEHAHHHHHH
modifications: Synthetic fusion protein
B1: the cell proliferation entry in assay [1] is “significance increase in cell proliferation”. The “concentration with effect on wound reduction” value in the assay on human skin keratinocytes is reported as “lower than 0.1 nM”. The wound reduction entry is reported as “most active compound” with human skin keratinocytes and “most active compound” in assay [2] (serum-free medium, two days). The “concentration with significant effect on wound reduction” value in assay [2] was in the range of 8 to 20 nM. In addition, the “wound healing (% closure of the wounds)” value in assay [3] and in assay [4] was “improvement in wound healing” each time. The “concentration at which effective/active in wound reduction” value in assay [5] is reported as “lower than 0.1 nM”. Moreover, the “wound reduction (wound healing)” value in assay [5] (serum-free medium, one day) is listed as “most effective compound”.

For the origin of these results see patent US7399746B2, “Agents for wound healing” (McGill University, priority 2004, dated 2008).
